According to PubChem BioAssay AID504441 (Broad Institute, 2011):
Only a part is listed here, and it is no random draw. Activity calls are given as the source filed them. Rule as the data show it: active = inhibition above about 50%; inactive = the rest.

What follows are molecules tested against Dual specificity tyrosine-phosphorylation-regulated kinase 1A (Rattus norvegicus) (UniProt Q63470) (assay: rat Dyrk1A kinase inhibitors, primary screen, biochemical, single point, plate reader (AID 504441;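 also: plate controls were vehicle with enzyme for no effect and no enzyme for full effect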)). Conditions: ADP-Glo luminescence, NFATc1 peptide, at 12.5 µM, stronger effect = higher value.

SMILES | inhibition
CC(C)(C)C(=O)NC(Sc1ccccc1)C(Cl)(Cl)Cl (configuration not stated) | inactive: -1.04%
O=P1(Nc2nc3ccc(Cl)cc3s2)COc2ccccc2O1 (configuration not stated) | inactive: 27.6%
CCOc1ccc(C2=NCC(CBr)S2)cc1 (configuration not stated) | inactive: -1.54%
CC(=O)Nc1ccc([As](=O)(O)O)c(O)c1 | inactive: -2.3%
CC(=O)Nc1ccc(Oc2c([N+](=O)[O-])cc([N+](=O)[O-])cc2[N+](=O)[O-])cc1 | inactive: 0.9%
Cc1ccccc1CN(C)C(=O)COC(=O)C(O)(c1ccccc1)c1ccccc1 | inactive: -0.717%
C[C@@H]1C=CCP(=O)(Oc2ccccc2)O1 (some centres not stated) | inactive: 6.7%
C[C@H]1OP(=O)(Oc2ccccc2)C[C@@H]2O[C@@H]21 (some centres not stated) | inactive: -6.13%
CC(=O)c1ccc(N2CC2c2ccncc2)cc1 (configuration not stated) | inactive: -2.38%
COC(=O)C1(C)COP(=O)(NCc2ccccc2)OC1 (configuration not stated) | inactive: 4.45%
O=[As](O)(c1cccc(O)c1)c1cccc(O)c1 | inactive: 4.54%
Cc1cccc(OCC(=O)OC2CN3CCC2CC3)c1 (configuration not stated) | inactive: 3.45%
O=C(OC1CN2CCC1CC2)c1ccc(Cl)cc1 (configuration not stated) | inactive: -3.35%
COc1cc(C(=O)NCC2(N3CCOCC3)CCCCC2)cc(Cl)c1OC(C)C | inactive: 4.52%
O=[As](O)(O)c1cccnc1 | inactive: -4.34%
CS(=O)(=O)c1ccc(Cl)c(NC(=O)COC(=O)C(O)(c2ccccc2)c2ccccc2)c1 | inactive: 1.86%
COc1cc(C2NCCC3(OCCO3)C2(C)C)cc(OC)c1OC (configuration not stated) | inactive: 7.32%
CCOP(=O)(Nc1cccc2ccccc12)OCC | inactive: 1.5%
Nc1cccc2c([As](=O)(O)O)cccc12 | inactive: -1.81%
Cc1ccc(NCCc2c([N+](=O)[O-])cc([N+](=O)[O-])cc2[N+](=O)[O-])cc1 | inactive: 0.683%
CCCOP(=S)(Nc1nc(N)cc(=O)[nH]1)OCCC | inactive: -1.36%
O=C(O)COc1ccc([As](=O)(O)O)cc1[N+](=O)[O-] | inactive: 8.02%

SMILES | inhibition
Nc1ccccc1[As](=O)(O)c1ccccc1 | inactive: -1.32%
CCOP1(=S)c2c(C)nn(CCC#N)c2N=C(c2ccccc2F)N1C (configuration not stated) | inactive: 2.24%
O=P(Nc1nccs1)(c1ccccc1)c1nc2ccccc2s1 (configuration not stated) | inactive: -1.56%
O=P(Nc1nccs1)(Oc1ccccc1)Oc1ccccc1 | inactive: -1.13%
CS(=O)(=O)c1cc([N+](=O)[O-])c2no[n+]([O-])c2c1 | inactive: -4.74%
N#CCCN(C(=O)COC(=O)C(O)(c1ccccc1)c1ccccc1)c1ccc(F)cc1 | inactive: 8.71%
CCOP1(=S)c2c(C)nn(CCC#N)c2N=C(c2ccc(F)cc2)N1C (configuration not stated) | inactive: -2.92%
CN(C(=O)Cc1ccccc1)[C@@H]1CC[C@]2(CCCO2)C[C@H]1N1CCCC1 | inactive: -3.85%
CN(C)C(=O)c1cc([N+](=O)[O-])cc2c1-c1c(cc([N+](=O)[O-])cc1[N+](=O)[O-])C2=O | inactive: 2.68%
O=[N+]([O-])c1ccc2c(c1)nnn2O | inactive: 4.7%
CN(C(=O)Cc1ccc(Cl)c(Cl)c1)[C@H]1CC[C@@]2(CCCO2)C[C@@H]1N1CCCC1 | inactive: 3.47%
NC(=O)Nc1ccc([As](=O)(O)O)cc1 | inactive: 4.55%
O=C(/C=C/c1ccccc1)OC1CN2CCC1CC2 (configuration not stated) | inactive: -3.59%
CCCC1OP(=O)(Nc2ccccc2)OCC1CC (configuration not stated) | inactive: 0.421%
Cc1nn(-c2ccccc2)c2c1P(=O)(N1CCOCC1)N(C)C(c1ccccc1)=N2 (configuration not stated) | inactive: -3.12%
Cc1ccc(C(=O)OC2CN3CCC2CC3)cc1 (configuration not stated) | inactive: -1.37%
CC1CCC(C(C)C)C(OP(=O)(Nc2ccccn2)c2ccccc2)C1 (configuration not stated) | inactive: -11.8%
Nc1cccc([As](=O)(O)c2ccccc2)c1 | inactive: 3.59%
NS(=O)(=O)c1cccc(NC(=O)COC(=O)C(O)(c2ccccc2)c2ccccc2)c1 | inactive: 3.38%
O=P1(Nc2ccc(Br)cn2)COc2ccccc2OC1 | inactive: -6.61%
O=[As](O)(c1cccs1)c1cccs1 | inactive: 0.443%
Cc1ccc(OCC(=O)OC2CN3CCC2CC3)cc1 (configuration not stated) | inactive: -5.38%

SMILES | inhibition
O=P1(Nc2ncccn2)COc2ccccc2OC1 | inactive: -0.16%
Clc1n[nH]nc1-c1nn[nH][15n]1 | inactive: -0.666%
CC(C)(C)C(=O)NC(Sc1ncccn1)C(Cl)(Cl)Cl (configuration not stated) | inactive: -5.62%
CCC1=CC2Cc3nc4ccc(Cl)cc4c(N)c3C(C1)C2 (configuration not stated) | inactive: 5.64%
O=P1(Nc2ccccn2)COc2ccccc2OC1 | inactive: -4.88%
CCOP(=O)(Nc1ccc(C)cn1)OCC | inactive: -3.44%
CN(C(=O)Cc1ccc(Cl)c(Cl)c1)[C@@H]1CCCC[C@H]1N1CCCC1 | inactive: -5.9%
CC(C)/C=N\N=C(\N)N[N+](=O)[O-] | inactive: 6.93%
CC1(CBr)Cn2c(nc3ccccc3c2=O)S1 (configuration not stated) | inactive: 17.9%
COc1ccccc1CNC(=O)COC(=O)C(O)(c1ccccc1)c1ccccc1 | inactive: -1.95%
O=C(COc1ccccc1)OC1CN2CCC1CC2 (configuration not stated) | inactive: -3.81%
O=C(Nc1ccncc1[N+](=O)[O-])c1ccc([N+](=O)[O-])cc1[N+](=O)[O-] | inactive: 12.7%
COP1(=S)c2c(C)nn(CCC#N)c2N=C(c2ccc(F)cc2)N1C (configuration not stated) | inactive: -5.27%
CCC(C)N(CC(C)C)C(=S)SC(NC(C)=O)C(Cl)(Cl)Cl (configuration not stated) | inactive: -2.69%
O=C(OC1CN2CCC1CC2)c1cccc([N+](=O)[O-])c1 (configuration not stated) | inactive: 4.73%
CCOC(=O)c1ccc(NC(=O)C(C)(CCl)SC)cc1 (configuration not stated) | inactive: 1.36%
CCCCOc1ccc(C(=O)NCC2(N3CCCCC3)CCCCC2)cc1OC | inactive: -1.5%
Cc1cc(SC(NC(=O)c2ccccc2)C(Cl)(Cl)Cl)nc(C(C)C)n1 (configuration not stated) | inactive: 0.304%
CCOC(=O)Nc1ccc([As](=O)(O)O)c(O)c1 | inactive: -2.37%
CC1CCNP(=O)(N(CCCl)CCCl)O1 (configuration not stated) | inactive: 4.65%
Cc1cc(SC(NC=O)C(Cl)(Cl)Cl)ncn1 (configuration not stated) | inactive: -0.543%
O=P(Nc1ccccn1)(c1cccc2ccccc12)c1cccc2ccccc12 | inactive: -0.535%

SMILES | inhibition
O=[N+]([O-])c1ccc(Nc2ccc(Oc3ccc([N+](=O)[O-])cc3[N+](=O)[O-])cc2)c([N+](=O)[O-])c1 | inactive: -1.03%
CCOC(=O)Nc1cccc([As](=O)(O)O)c1 | inactive: 4.33%
Cc1ccc(OP(=O)(Nc2ccc([N+](=O)[O-])cn2)Oc2ccc(C)cc2)cc1 | inactive: -1.96%
Cc1ccc2nc3c(c(C)c2c1)CC(C(Cl)Cl)S3 (configuration not stated) | inactive: 5.15%
O=[As](O)(c1ccc(O)cc1)c1ccccc1O | inactive: -3.51%
C[As](=O)(O)c1cccc(C(=O)O)c1 | inactive: -0.511%
O=C(OC1CN2CCC1CC2)c1cccc2[nH]cnc12 (configuration not stated) | inactive: 5.5%
CCN(CC)C(=S)SC(NC=O)C(Cl)(Cl)Cl (configuration not stated) | inactive: -9.7%
CC(C)NC(=O)NP(=O)(Oc1ccccc1)Oc1ccccc1 | inactive: -0.674%
O=[N+]([O-])c1cc([N+](=O)[O-])c(-c2ccn[nH]2)s1 | inactive: 3.29%
ClCCSc1nnc(-c2cccnc2)o1 | inactive: -1.3%
CC(C)c1ccc(OP(=O)(Nc2ccccn2)Oc2ccccc2F)cc1 (configuration not stated) | inactive: -6.67%
COC(=O)C1(C)COP(=O)(N2CCCCCC2)OC1 (configuration not stated) | inactive: -4.6%
O=P1(N(CCCl)CCCl)Nc2ccccc2N1 | inactive: -0.567%
COc1ccc2nc(NP(=O)(c3ccccc3)c3ccccc3)sc2c1 | inactive: 3.21%
COc1cc(I)ccc1[As](=O)(O)O | inactive: -5.46%
Cc1c2c(nc3ccccc13)SC(C(Cl)Cl)C2 (configuration not stated) | inactive: 45.1%
O=C(OC1CN2CCC1CC2)C12CC3CC(CC(C3)C1)C2 (configuration not stated) | inactive: -3.25%
Cc1cc(=O)[nH]c(N[N+](=O)[O-])n1 | inactive: -5.43%
O=[N+]([O-])c1cc(Oc2ccc([N+](=O)[O-])cc2C(F)(F)F)cc([N+](=O)[O-])c1 | inactive: -4.23%
COc1ccc(N/C(=N/P(=O)(N2CCOCC2)N2CCOCC2)N2CCOCC2)cc1 | inactive: 1.64%
